Laboratory results: ChEMBL document CHEMBL1124172 (J Med Chem, 1988)
Values after ≈ are worked out from the molar mass of the structure shown.

Key:
Mus musculus [1] = assay: In vivo antitumor activity against P388 Lymphocytic Leukemia measured as Survivors on day 5 at 16.13 mg/kg; 6/6
Mus musculus [2] = assay: In vivo antitumor activity against P388 Lymphocytic Leukemia in mice at 32.25 mg/kg expressed as T/C value
Mus musculus [3] = assay: In vivo antitumor activity against P388 Lymphocytic Leukemia in mice at 64.5 mg/kg expressed as T/C value
Mus musculus [4] = assay: In vivo antitumor activity against P388 Lymphocytic Leukemia measured as Survivors on day 5 at 64.5 mg/kg; 5/6
Mus musculus [5] = assay: In vivo antitumor activity against P388 Lymphocytic Leukemia in mice at 16.13 mg/kg expressed as T/C value
Mus musculus [6] = assay: In vivo antitumor activity against P388 Lymphocytic Leukemia measured as Survivors on day 5 at 129 mg/kg; 6/6
Mus musculus [7] = assay: In vivo antitumor activity against P388 Lymphocytic Leukemia measured as Survivors on day 5 at 32.25 mg/kg; 6/6
Mus musculus [8] = assay: In vivo antitumor activity against P388 Lymphocytic Leukemia in mice at 129 mg/kg expressed as T/C value
A204 = assay: In vitro cytotoxicity against human A204 Rhabdomyosarcoma cell line; assay type: functional, cell-based
Procedure, shortened: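 A204 human rhabdomyosarcoma soft-agarose colony assay. 10^4 trypsin/EDTA-dissociated cells in 0.3% agarose over a 0.5% agarose base, in DMEM with 10% FCS, at 37 °C and 5% CO2. Compound was applied in an upper medium layer on day 1 for 24 h, then washed out. Colonies >60 µm were counted after 7–9 days by tetrazolium stain and image analysis. Quadruplicates with vehicle controls, at least four concentrations up to 100 or 1000 µg/mL. IC50 from a monoexponential least-squares fit over at least three preparations, mean ± SE.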

For `CC[C@](O)(C(=O)O[C@H]1CC[N+]2([O-])CC=C(CO)[C@H]12)c1ccccc1` (some centres undefined), the Survivors (Mus musculus [1]) was 6, the T/C (Mus musculus [2]) was 106% and the T/C (Mus musculus [3]) was 106%. For the same molecule, the Survivors (Mus musculus [4]) was 5, the T/C (Mus musculus [5]) was 100% and the Survivors (Mus musculus [6]) was 6. For the same molecule, the Survivors (Mus musculus [7]) was 6, the T/C (Mus musculus [8]) was 106% and the IC50 (A204) was 9 µg/mL (≈ 27 µM).
